Data reported in patent US20020026051A1, “Dithiepino [6,5-b]pyridines, and related compositions and methods” (priority 1999, published 2002).

Protein sequences, listed by entry. Tags and fused reporters are not part of them.
UniProt P15381, whole entry: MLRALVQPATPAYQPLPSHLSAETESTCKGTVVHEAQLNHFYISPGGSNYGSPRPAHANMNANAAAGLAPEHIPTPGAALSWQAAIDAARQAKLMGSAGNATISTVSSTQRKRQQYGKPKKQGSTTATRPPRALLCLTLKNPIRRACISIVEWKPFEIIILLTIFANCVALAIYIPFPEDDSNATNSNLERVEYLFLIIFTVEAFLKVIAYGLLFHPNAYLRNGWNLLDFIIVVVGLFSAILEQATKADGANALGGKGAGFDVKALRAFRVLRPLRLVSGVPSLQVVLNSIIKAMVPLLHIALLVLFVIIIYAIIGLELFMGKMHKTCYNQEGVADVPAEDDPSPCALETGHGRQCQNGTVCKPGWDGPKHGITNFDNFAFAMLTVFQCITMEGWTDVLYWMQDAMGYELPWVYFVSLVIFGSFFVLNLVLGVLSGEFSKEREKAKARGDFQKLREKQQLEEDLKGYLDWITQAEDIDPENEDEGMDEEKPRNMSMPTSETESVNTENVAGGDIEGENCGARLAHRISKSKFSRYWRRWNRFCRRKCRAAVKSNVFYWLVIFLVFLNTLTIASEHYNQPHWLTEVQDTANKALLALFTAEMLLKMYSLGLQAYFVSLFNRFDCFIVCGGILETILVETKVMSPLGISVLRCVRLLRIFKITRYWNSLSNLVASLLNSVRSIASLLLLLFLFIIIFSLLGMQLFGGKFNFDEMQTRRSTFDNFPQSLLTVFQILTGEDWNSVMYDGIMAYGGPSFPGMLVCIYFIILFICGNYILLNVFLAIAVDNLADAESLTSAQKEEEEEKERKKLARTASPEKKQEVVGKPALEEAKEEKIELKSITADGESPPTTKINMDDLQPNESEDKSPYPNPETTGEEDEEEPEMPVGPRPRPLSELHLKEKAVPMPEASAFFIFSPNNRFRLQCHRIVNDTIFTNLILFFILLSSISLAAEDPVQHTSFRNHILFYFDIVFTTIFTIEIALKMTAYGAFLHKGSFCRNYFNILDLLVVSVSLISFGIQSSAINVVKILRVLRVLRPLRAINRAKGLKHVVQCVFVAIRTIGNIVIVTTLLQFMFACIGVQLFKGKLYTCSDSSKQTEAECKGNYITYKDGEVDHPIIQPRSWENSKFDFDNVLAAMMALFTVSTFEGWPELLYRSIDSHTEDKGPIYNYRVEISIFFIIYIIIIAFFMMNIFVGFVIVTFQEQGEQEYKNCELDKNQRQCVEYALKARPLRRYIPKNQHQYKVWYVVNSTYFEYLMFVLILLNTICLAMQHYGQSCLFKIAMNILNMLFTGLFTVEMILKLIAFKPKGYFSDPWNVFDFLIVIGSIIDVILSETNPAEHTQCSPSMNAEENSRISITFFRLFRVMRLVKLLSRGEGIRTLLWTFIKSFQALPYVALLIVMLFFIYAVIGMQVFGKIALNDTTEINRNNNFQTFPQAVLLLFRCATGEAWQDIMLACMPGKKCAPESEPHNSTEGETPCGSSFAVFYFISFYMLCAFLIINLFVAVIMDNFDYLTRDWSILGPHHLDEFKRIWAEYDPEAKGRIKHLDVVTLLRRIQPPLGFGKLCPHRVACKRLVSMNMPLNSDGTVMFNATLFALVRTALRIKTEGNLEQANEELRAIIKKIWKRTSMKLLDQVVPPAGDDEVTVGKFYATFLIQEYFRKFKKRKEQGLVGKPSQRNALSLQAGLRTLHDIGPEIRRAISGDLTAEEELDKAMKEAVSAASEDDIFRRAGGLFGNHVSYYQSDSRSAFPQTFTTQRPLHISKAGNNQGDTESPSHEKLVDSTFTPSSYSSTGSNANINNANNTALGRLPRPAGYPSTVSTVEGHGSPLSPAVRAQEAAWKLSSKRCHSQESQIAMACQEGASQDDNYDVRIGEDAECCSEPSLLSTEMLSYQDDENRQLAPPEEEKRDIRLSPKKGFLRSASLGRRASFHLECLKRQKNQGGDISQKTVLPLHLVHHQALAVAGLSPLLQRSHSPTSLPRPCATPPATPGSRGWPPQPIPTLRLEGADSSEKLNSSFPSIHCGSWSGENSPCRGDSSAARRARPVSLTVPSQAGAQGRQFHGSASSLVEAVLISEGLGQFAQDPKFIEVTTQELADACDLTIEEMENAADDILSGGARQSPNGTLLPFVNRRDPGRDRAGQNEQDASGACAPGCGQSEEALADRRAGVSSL

Target: T1, calcium channel (Oryctolagus cuniculus, UniProt P15381)
T1 construct: from tissue; host or cells: rabbit heart membrane preparation
Test: Assay for Inhibition of Nitrendipine Binding (3H-nitrendipine, heart membranes)
Settings: 3H-nitrendipine displacement, rabbit heart membranes; Tables 1-5
Description: Female, New Zealand white rabbits (1-2 kg) are sacrificed by cervical dislocation, and the heart is immediately removed, cleaned and chopped into small pieces. The tissue is homogenized in 5× times volume of 0.05M Hepes buffer, pH 7.4. The homogenate is centrifuged at 4000 g for 10 minutes, and the supernatant is re-centrifuged at 42,000×g for 90 minutes. The resulting membrane pellet is resuspended (0.7 ml/g weight) in 0.05M Hepes, pH 7.4 and stored at […] until used. Each tube of the binding assay contains ^3H-nitrendipine (0.05-0.50 nM), buffer, membranes (0.10 ml), and test compound in a total volume of 1.0 ml. After 90 minutes at 4° C., the bound nitrendipine is separated from the unbound by filtration on Whatman GF/C filters. After rinsing, the filters are dried and counted in a liquid scintillation counter.
Non-specific binding of ^3H-nitrendipine (that amount bound in the presence of excess unlabelled nitrendipine) is subtracted from the total bound to obtain specifically bound radiolabeled nitrendipine. The amount of specifically bound nitrendipine in the presence of a test compound is compared to that amount bound in the absence of a compound. A percent displacement (or inhibition) can then be calculated.

Substance	IC50 [nM]
2H,6H-1,5-Dithiocino[3,2-b]pyridine-9-carboxylic acid, 3,4,7,10-tetrahydro-8-methyl-10-(2-nitrophenyl)-2-[methyl(phenylmethyl)amino]ethyl ester 1,1,5,5-tetraoxide [Compound 30]	716
5H-1,4-Dithiepino[6,5-b]pyridine-8-carboxylic acid, 9-(2-chloro-5-nitrophenyl)-2,3,6,9-tetrahydro-7-methyl-methyl ester 1,1,4,4-tetraoxide [Compound 12]	261
